Target: mVEGFR (Mus musculus, UniProt P35918)
Assay: biochemical

Sequences of proteins named here, by UniProt entry; tags and fusion partners are left off. Residues count along the entry.
UniProt P35918, 804-1169: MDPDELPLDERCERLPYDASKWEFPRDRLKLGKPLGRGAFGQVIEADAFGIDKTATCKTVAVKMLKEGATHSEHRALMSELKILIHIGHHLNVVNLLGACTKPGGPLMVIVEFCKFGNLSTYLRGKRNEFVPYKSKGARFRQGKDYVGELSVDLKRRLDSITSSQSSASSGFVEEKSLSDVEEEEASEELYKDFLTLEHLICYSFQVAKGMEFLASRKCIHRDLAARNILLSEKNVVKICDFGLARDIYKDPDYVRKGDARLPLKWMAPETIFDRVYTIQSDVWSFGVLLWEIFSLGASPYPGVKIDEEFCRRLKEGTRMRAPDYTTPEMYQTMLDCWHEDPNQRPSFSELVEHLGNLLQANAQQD

Work on `CNC(=O)c1cc(Oc2ccc(NC(=O)Nc3ccc(Cl)c(C(F)(F)F)c3)cc2)ccn1` yielded an IC50 of 1 nM.
